Measurements taken from ChEMBL document CHEMBL1158362, “4-Phenoxybutoxy-substituted heterocycles--a structure-activity relationship study of blockers of the lymphocyte potassium channel Kv1.3” (Eur J Med Chem, 2009).

By UniProt entry, the sequences of proteins in these tests, tags left out.
UniProt P22460, whole entry: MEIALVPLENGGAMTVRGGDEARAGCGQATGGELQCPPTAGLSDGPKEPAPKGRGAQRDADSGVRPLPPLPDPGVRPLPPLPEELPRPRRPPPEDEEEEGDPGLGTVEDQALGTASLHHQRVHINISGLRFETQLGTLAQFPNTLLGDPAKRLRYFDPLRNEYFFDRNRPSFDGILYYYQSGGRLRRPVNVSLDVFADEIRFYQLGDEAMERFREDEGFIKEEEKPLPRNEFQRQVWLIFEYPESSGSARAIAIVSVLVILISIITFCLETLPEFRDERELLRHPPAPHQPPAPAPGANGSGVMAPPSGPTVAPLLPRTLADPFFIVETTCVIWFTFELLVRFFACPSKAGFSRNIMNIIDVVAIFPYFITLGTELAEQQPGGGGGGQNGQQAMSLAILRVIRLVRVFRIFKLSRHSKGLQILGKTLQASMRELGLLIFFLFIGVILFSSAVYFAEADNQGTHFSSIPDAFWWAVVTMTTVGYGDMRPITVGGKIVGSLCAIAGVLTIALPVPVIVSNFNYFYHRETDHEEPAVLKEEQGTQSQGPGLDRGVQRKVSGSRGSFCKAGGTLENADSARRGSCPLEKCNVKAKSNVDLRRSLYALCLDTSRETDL
UniProt P22001, whole entry: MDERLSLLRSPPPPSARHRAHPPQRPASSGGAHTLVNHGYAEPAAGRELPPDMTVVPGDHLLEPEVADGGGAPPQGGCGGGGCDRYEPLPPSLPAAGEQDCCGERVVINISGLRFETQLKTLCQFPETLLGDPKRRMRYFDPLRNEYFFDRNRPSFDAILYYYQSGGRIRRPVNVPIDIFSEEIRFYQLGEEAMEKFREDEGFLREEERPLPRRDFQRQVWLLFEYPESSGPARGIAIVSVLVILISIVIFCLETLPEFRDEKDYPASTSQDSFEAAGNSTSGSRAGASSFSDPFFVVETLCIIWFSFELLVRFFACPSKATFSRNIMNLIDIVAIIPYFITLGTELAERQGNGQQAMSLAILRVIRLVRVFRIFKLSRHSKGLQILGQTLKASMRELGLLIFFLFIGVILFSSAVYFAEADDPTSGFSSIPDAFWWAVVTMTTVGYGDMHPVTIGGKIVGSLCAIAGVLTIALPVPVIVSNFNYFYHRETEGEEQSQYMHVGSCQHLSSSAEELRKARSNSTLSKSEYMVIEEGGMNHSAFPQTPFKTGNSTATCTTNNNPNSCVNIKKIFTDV

Assays:
[1] = molecular target: Potassium voltage-gated channel subfamily A member 5 (Homo sapiens) (UniProt P22460); test: Inhibition of Kv1.5 potassium channel by whole cell patch clamp
Method in brief: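 Currents were recorded by whole-cell patch clamp from MEL-C88 cells. Each compound was tested three times at 4–5 concentrations, each experiment on a different cell. IC50 came from a Hill-equation fit of the reduction in area under the current curve.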

[2] = molecular target: Potassium voltage-gated channel subfamily A member 3 (Homo sapiens, UniProt P22001); test: Inhibition of Kv1.3 potassium channel expressed in mouse L929 cells by whole cell patch clamp; format: cell-based
Method in brief: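 Currents were evoked by 500 ms pulses to 40 mV every 45 s. Each compound was run three times at 4–5 concentrations, each on a different cell. IC50 came from a Hill fit of the reduction in area under the current curve.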

Structure (SMILES) | IC50 [1] [nM] | IC50 [2] [nM]
c1ccc(OCCCCOc2cccc3cnccc23)cc1 | 520 | 520
COc1ccc2c(OCCCCOc3ccccc3)c3ccoc3nc2c1OC | – | 200
Cc1cc(=O)c2c(OCCCCOc3ccccc3)c3c(cc2o1)OCO3 | – | 5000
Cc1cc(=O)c2c(OCCCCOc3ccccc3)c3ccc(=O)oc3cc2o1 | 6000 | 6000
